Tests used:
[1] = target: T1, CRF2R (Homo sapiens, UniProt Q13324); assay: CRF2R agonist activity (EC50 and Emax), called comparative CRF binding; format: cell-based; conditions: CRF2R EC50 (nM), CRF2R
T1 sequence (Q13324 1-411): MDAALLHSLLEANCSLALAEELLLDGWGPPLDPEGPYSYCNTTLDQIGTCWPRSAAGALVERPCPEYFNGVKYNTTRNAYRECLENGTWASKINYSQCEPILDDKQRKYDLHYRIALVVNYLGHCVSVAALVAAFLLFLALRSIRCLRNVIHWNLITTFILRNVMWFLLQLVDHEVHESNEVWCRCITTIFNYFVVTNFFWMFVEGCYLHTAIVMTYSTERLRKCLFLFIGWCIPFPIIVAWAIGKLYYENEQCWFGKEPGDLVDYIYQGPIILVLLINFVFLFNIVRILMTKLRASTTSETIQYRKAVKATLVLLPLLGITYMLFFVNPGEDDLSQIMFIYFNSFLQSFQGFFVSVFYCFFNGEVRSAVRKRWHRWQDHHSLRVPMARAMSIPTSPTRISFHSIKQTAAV
Procedure, shortened: (§1)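 CRE-reporter or direct cAMP, cells w/ single CRFR subtype (recombinant or CRF1R-disabled), peptide vs vehicle; background from other CRFR type subtracted.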

[2] = target: T2, CRF1R (Homo sapiens, UniProt P34998); assay: CRF1R agonist activity (EC50 and Emax), called comparative CRF binding; format: cell-based; conditions: CRF1R EC50 (nM), CRF1R
T2 sequence (P34998 24-415): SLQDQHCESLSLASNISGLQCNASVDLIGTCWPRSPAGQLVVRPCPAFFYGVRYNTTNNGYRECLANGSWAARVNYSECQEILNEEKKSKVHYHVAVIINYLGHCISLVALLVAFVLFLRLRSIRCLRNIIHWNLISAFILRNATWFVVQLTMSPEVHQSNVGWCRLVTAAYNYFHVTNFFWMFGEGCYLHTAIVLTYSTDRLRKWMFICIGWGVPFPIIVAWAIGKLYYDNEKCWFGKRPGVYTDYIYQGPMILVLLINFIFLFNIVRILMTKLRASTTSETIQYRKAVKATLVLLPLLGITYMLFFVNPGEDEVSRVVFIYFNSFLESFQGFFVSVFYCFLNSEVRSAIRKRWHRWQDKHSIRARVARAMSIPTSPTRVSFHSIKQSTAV
Procedure, shortened: as §1

| Structure (SMILES) | EC50 [1] | EC50 [2] |
| --- | --- | --- |
| CC[C@H](C)[C@H](NC(=O)[C@@H](NC(=O)[C@H](CC(=O)O)NC(=O)[C@H](CC(C)C)NC(=O)[C@H](CC(C)C)NC(=O)[C@H](CC(C)C)NC(=O)[C@H](CCCNC(=N)N)NC(=O)[C@H](CC(N)=O)NC(=O)[C@H](CC(N)=O)NC(=O)[C@H](C)NC(=O)[C@H](C)NC(=O)[C@H](CCC(N)=O)NC(=O)[C@H](CCC(N)=O)NC(=O)[C@H](CCCCN)NC(=O)[C@H](CCC(=O)O)NC(=O)[C@H](CCCCN)NC(=O)[C@H](CCC(=O)O)NC(=O)[C@H](CCC(N)=O)NC(=O)[C@H](CCCCN)NC(=O)[C@H](CCC(=O)O)NC(=O)[C@@H](NC(=O)[C@H](CCC(=O)O)NC(=O)[C@@H](NC(=O)[C@H](CCSC)NC(=O)[C@H](CCCCN)NC(=O)[C@H](CCCNC(=N)N)NC(=O)[C@H](CC(C)C)NC(=O)[C@H](CC(C)C)NC(=O)[C@@H](NC(=O)[C@@H](NC(=O)[C@@H]1CCCN1C(=O)[C@H](CC(C)C)NC(=O)[C@H](CC(=O)O)NC(=O)[C@@H](NC(=O)[C@H](CO)NC(=O)[C@@H](NC(=O)[C@@H]1CCCN1C(=O)[C@@H]1CCCN1C(=O)CNC(=O)[C@@H]1CCC(=O)N1)[C@@H](C)CC)[C@@H](C)CC)[C@@H](C)O)C(C)C)[C@@H](C)CC)[C@@H](C)CC)[C@@H](C)O)C(N)=O [compound 46] | > 100 nM | > 1000 nM |
| CC[C@H](C)[C@H](NC(=O)[C@@H](NC(=O)[C@H](CC(=O)O)NC(=O)[C@H](CC(C)C)NC(=O)[C@H](CC(C)C)NC(=O)[C@H](CC(C)C)NC(=O)[C@H](CCCNC(=N)N)NC(=O)[C@H](CC(N)=O)NC(=O)[C@H](CC(N)=O)NC(=O)[C@H](C)NC(=O)[C@H](C)NC(=O)[C@H](CCC(N)=O)NC(=O)[C@H](CCC(N)=O)NC(=O)[C@H](CCCCN)NC(=O)[C@H](CCC(=O)O)NC(=O)[C@H](CCCCN)NC(=O)[C@H](CCC(=O)O)NC(=O)[C@H](CCC(N)=O)NC(=O)[C@H](CCCCN)NC(=O)[C@H](CCC(=O)O)NC(=O)[C@@H](NC(=O)[C@H](CCC(=O)O)NC(=O)[C@@H](NC(=O)[C@H](CCSC)NC(=O)[C@H](CCCCN)NC(=O)[C@H](CCCNC(=N)N)NC(=O)[C@H](CC(C)C)NC(=O)[C@H](CC(C)C)NC(=O)[C@H](Cc1c[nH]cn1)NC(=O)[C@H](Cc1ccccc1)NC(=O)[C@@H]1CCCN1C(=O)[C@H](CC(C)C)NC(=O)[C@H](CC(=O)O)NC(=O)[C@@H](NC(=O)[C@H](CO)NC(=O)[C@@H](NC(=O)[C@@H]1CCCN1C(=O)[C@@H]1CCCN1C(=O)CNC(=O)[C@@H]1CCC(=O)N1)[C@@H](C)CC)[C@@H](C)CC)[C@@H](C)CC)[C@@H](C)CC)[C@@H](C)O)C(N)=O [compound 69] | 5.85 nM | 34.5 nM |
| CC[C@H](C)[C@H](NC(=O)[C@@H](NC(=O)[C@H](CC(=O)O)NC(=O)[C@H](CC(C)C)NC(=O)[C@H](CC(C)C)NC(=O)[C@H](CC(C)C)NC(=O)[C@H](CCCNC(=N)N)NC(=O)[C@H](CC(N)=O)NC(=O)[C@H](CC(N)=O)NC(=O)[C@H](C)NC(=O)[C@H](C)NC(=O)[C@H](CCC(N)=O)NC(=O)[C@H](CCC(N)=O)NC(=O)[C@H](CCCCN)NC(=O)[C@H](CCC(=O)O)NC(=O)[C@H](CCCCN)NC(=O)[C@H](CCC(=O)O)NC(=O)[C@H](CCC(N)=O)NC(=O)[C@H](CCCCN)NC(=O)[C@H](CCC(=O)O)NC(=O)[C@@H](NC(=O)[C@H](CCC(=O)O)NC(=O)[C@@H](NC(=O)[C@H](CCSC)NC(=O)[C@H](CCCCN)NC(=O)[C@H](CCCNC(=N)N)NC(=O)[C@H](CC(C)C)NC(=O)[C@H](CC(C)C)NC(=O)[C@H](Cc1ccccc1)NC(=O)[C@H](CCC(N)=O)NC(=O)[C@@H]1CCCN1C(=O)[C@H](CC(C)C)NC(=O)[C@H](CC(=O)O)NC(=O)[C@@H](NC(=O)[C@H](CO)NC(=O)[C@@H](NC(=O)[C@@H]1CCCN1C(=O)[C@@H]1CCCN1C(=O)CNC(=O)[C@@H]1CCC(=O)N1)[C@@H](C)CC)[C@@H](C)CC)[C@@H](C)CC)[C@@H](C)CC)[C@@H](C)O)C(N)=O [compound 221] | 8.5 nM | 236 nM |
| CC[C@H](C)[C@H](NC(=O)[C@@H](NC(=O)[C@H](CC(=O)O)NC(=O)[C@H](CC(C)C)NC(=O)[C@H](CC(C)C)NC(=O)[C@H](CCCNC(=N)N)NC(=O)[C@H](C)NC(=O)[C@H](CC(N)=O)NC(=O)[C@H](CC(N)=O)NC(=O)[C@H](C)NC(=O)[C@H](C)NC(=O)[C@H](CCC(N)=O)NC(=O)[C@H](CCC(N)=O)NC(=O)[C@H](CCCCN)NC(=O)[C@H](CCC(=O)O)NC(=O)[C@H](CCCCN)NC(=O)[C@H](CCC(=O)O)NC(=O)[C@H](CCC(N)=O)NC(=O)[C@H](CCCCN)NC(=O)[C@H](CCC(=O)O)NC(=O)[C@@H](NC(=O)[C@H](CCC(=O)O)NC(=O)[C@@H](NC(=O)[C@@H](NC(=O)[C@H](CCCCN)NC(=O)[C@H](CCCNC(=N)N)NC(=O)[C@H](CC(C)C)NC(=O)[C@H](CC(C)C)NC(=O)[C@H](Cc1c[nH]c2ccccc12)NC(=O)[C@H](Cc1ccc(O)cc1)NC(=O)[C@@H]1CCCN1C(=O)[C@@H](NC(=O)[C@H](CC(=O)O)NC(=O)[C@@H](NC(=O)[C@H](CO)NC(=O)[C@@H](NC(=O)[C@@H]1CCCN1C(=O)[C@@H]1CCCN1C(=O)CNC(=O)[C@@H]1CCC(=O)N1)[C@@H](C)CC)[C@@H](C)CC)C(C)C)C(C)C)[C@@H](C)CC)[C@@H](C)CC)[C@@H](C)O)C(N)=O [compound 372] | 14.2 nM | ≥ 1000 nM |
| CC[C@H](C)[C@H](NC(=O)[C@H](CCC(=O)O)NC(=O)[C@@H](NC(=O)[C@H](CCSC)NC(=O)[C@H](CCCCN)NC(=O)[C@H](CCCNC(=N)N)NC(=O)[C@H](CC(C)C)NC(=O)[C@H](CC(C)C)NC(=O)[C@H](CCC(N)=O)NC(=O)[C@H](Cc1ccccc1)NC(=O)[C@@H]1CCCN1C(=O)[C@H](CC(C)C)NC(=O)[C@H](CC(=O)O)NC(=O)[C@@H](NC(=O)[C@H](CO)NC(=O)[C@@H](NC(=O)[C@@H]1CCCN1C(=O)[C@@H]1CCCN1C(=O)CNC(=O)[C@@H]1CCC(=O)N1)[C@@H](C)CC)[C@@H](C)CC)[C@@H](C)CC)C(=O)N[C@@H](CCC(=O)O)C(=O)N[C@@H](CCCCN)C(=O)N[C@@H](CCC(N)=O)C(=O)N[C@@H](CCC(=O)O)C(=O)N[C@@H](CCCCN)C(=O)N[C@@H](CCC(=O)O)C(=O)N[C@@H](CCCCN)C(=O)N[C@@H](CCC(N)=O)C(=O)N[C@@H](CCC(N)=O)C(=O)N[C@@H](C)C(=O)N[C@H](C(=O)N[C@H](C(=O)N[C@@H](CC(N)=O)C(=O)N[C@@H](C)C(=O)N[C@@H](CCCNC(=N)N)C(=O)N[C@@H](CC(C)C)C(=O)N[C@@H](CC(C)C)C(=O)N[C@@H](C)C(=O)N[C@@H](CCCNC(=N)N)C(=O)N[C@H](C(N)=O)C(C)C)[C@@H](C)O)[C@@H](C)O [compound 23] | 10.2 nM | ≥ 1000 nM |
| CC[C@H](C)[C@H](NC(=O)[C@@H](NC(=O)[C@H](CC(=O)O)NC(=O)[C@H](CC(C)C)NC(=O)[C@H](CC(C)C)NC(=O)[C@H](CC(C)C)NC(=O)[C@H](CCCNC(=N)N)NC(=O)[C@H](CC(N)=O)NC(=O)[C@H](CC(N)=O)NC(=O)[C@H](C)NC(=O)[C@H](C)NC(=O)[C@H](CCC(N)=O)NC(=O)[C@H](CCC(N)=O)NC(=O)[C@H](CCCCN)NC(=O)[C@H](CCC(=O)O)NC(=O)[C@H](CCCCN)NC(=O)[C@H](CCC(=O)O)NC(=O)[C@H](CCC(N)=O)NC(=O)[C@H](CCCCN)NC(=O)[C@H](CCC(=O)O)NC(=O)[C@@H](NC(=O)[C@H](CCC(=O)O)NC(=O)[C@@H](NC(=O)[C@H](CCSC)NC(=O)[C@H](CCCCN)NC(=O)[C@H](CCCNC(=N)N)NC(=O)[C@H](CC(C)C)NC(=O)[C@H](CC(C)C)NC(=O)CNC(=O)[C@@H](NC(=O)[C@@H]1CCCN1C(=O)[C@H](CC(C)C)NC(=O)[C@H](CC(=O)O)NC(=O)[C@@H](NC(=O)[C@H](CO)NC(=O)[C@@H](NC(=O)[C@@H]1CCCN1C(=O)[C@@H]1CCCN1C(=O)CNC(=O)[C@@H]1CCC(=O)N1)[C@@H](C)CC)[C@@H](C)CC)[C@@H](C)O)[C@@H](C)CC)[C@@H](C)CC)[C@@H](C)O)C(N)=O [compound 73] | > 100 nM | > 100 nM |
| CC[C@H](C)[C@H](NC(=O)[C@H](CCC(=O)O)NC(=O)[C@@H](NC(=O)[C@H](CCSC)NC(=O)[C@H](CCCCN)NC(=O)[C@H](CCCNC(=N)N)NC(=O)[C@H](CC(C)C)NC(=O)[C@H](CC(C)C)NC(=O)[C@H](Cc1c[nH]cn1)NC(=O)[C@H](Cc1ccc(O)cc1)NC(=O)[C@@H]1CCCN1C(=O)[C@H](CC(C)C)NC(=O)[C@H](CC(=O)O)NC(=O)[C@@H](NC(=O)[C@H](CO)NC(=O)[C@@H](NC(=O)[C@@H]1CCCN1C(=O)[C@@H]1CCCN1C(=O)CNC(=O)[C@@H]1CCC(=O)N1)[C@@H](C)CC)[C@@H](C)CC)[C@@H](C)CC)C(=O)N[C@@H](CCC(=O)O)C(=O)N[C@@H](CCCCN)C(=O)N[C@@H](CCC(N)=O)C(=O)N[C@@H](CCC(=O)O)C(=O)N[C@@H](CCCCN)C(=O)N[C@@H](CCC(=O)O)C(=O)N[C@@H](CCCCN)C(=O)N[C@@H](CCC(N)=O)C(=O)N[C@@H](CCC(N)=O)C(=O)N[C@@H](C)C(=O)N[C@@H](C)C(=O)N[C@@H](CC(N)=O)C(=O)N[C@@H](CC(N)=O)C(=O)N[C@@H](C)C(=O)N[C@@H](CC(C)C)C(=O)N[C@@H](CC(C)C)C(=O)N[C@@H](CC(C)C)C(=O)N[C@@H](C)C(=O)N[C@H](C(N)=O)[C@@H](C)O [compound 315] | 9.35 nM | 454 nM |

Reference: US7632933B2, “Corticotropin releasing factor 2 receptor agonists” (priority 2002, dated 2009)
